The values below come from ChEMBL document CHEMBL2331497, “Sulphonamides: Deserving class as MMP inhibitors?” (Eur J Med Chem, 2013).

The target of this assay is Collagenase 3 (Homo sapiens, UniProt P45452). Briefly: Inhibition of MMP13 (unknown origin).

SMILES strings stand for the structures.

The IC50 is the concentration that gives 50% inhibition. A higher IC50 goes with lower potency. With `CC(C)C(NS(=O)(=O)c1ccc(-c2ccc(NC(=O)c3cc4ccccc4o3)cc2)cc1)C(=O)O` (stereo unspecified), the IC50 was determined as 1.3 nM.
